Results reported in ChEMBL document CHEMBL5154800, “Identification of N, C-capped di- and tripeptides as selective immunoproteasome inhibitors” (Eur J Med Chem, 2022).

Assay: Selectivity ratio of IC50 for inhibition of 20S proteasome beta 5c subunit (unknown origin) to IC50 for inhibition of 20S proteasome subunit beta-5i

SMILES	Ratio IC50
Cc1ccc(CNC(=O)[C@H](Cc2ccc([N+](=O)[O-])cc2)NC(=O)[C@H](CCC(=O)NC(C)(C)C)NC(=O)CCNC(=O)CCl)cc1	12
Cc1ccc(CNC(=O)[C@H](Cc2ccccc2)NC(=O)[C@H](CCC(=O)NC(C)(C)C)NC(=O)[C@H](CNC(=O)CCl)NC(=O)CCCc2ccccc2)cc1	8
Cc1ccc(CNC(=O)[C@H](Cc2ccc3ccccc3c2)NC(=O)[C@H](CCC(=O)NC(C)(C)C)NC(=O)CCNC(=O)CCl)cc1	60
Cc1ccc(CNC(=O)[C@H](Cc2ccccc2)NC(=O)[C@H](CCC(=O)NC(C)(C)C)NC(=O)CCNC(=O)/C(C#N)=C/c2ccco2)cc1	2

Results, then the compound that gave them:

Ratio IC50	SMILES
4	Cc1ccc(CNC(=O)[C@H](Cc2ccccc2)NC(=O)[C@H](CCC(=O)NC(C)(C)C)NC(=O)[C@H](CNC(=O)CCl)NC(=O)c2cc(C)on2)cc1
5	Cc1ccc(CNC(=O)[C@H](Cc2ccccc2)NC(=O)[C@H](CCC(=O)NC(C)(C)C)NC(=O)[C@H](CNC(=O)CCl)NS(=O)(=O)c2ccc(C)cc2)cc1
